Earlier results as cited in article PMC5659385.

Amino acid sequences for entries named in this document (tags omitted). Residues count along the entry.
UniProt P01012, 2-386: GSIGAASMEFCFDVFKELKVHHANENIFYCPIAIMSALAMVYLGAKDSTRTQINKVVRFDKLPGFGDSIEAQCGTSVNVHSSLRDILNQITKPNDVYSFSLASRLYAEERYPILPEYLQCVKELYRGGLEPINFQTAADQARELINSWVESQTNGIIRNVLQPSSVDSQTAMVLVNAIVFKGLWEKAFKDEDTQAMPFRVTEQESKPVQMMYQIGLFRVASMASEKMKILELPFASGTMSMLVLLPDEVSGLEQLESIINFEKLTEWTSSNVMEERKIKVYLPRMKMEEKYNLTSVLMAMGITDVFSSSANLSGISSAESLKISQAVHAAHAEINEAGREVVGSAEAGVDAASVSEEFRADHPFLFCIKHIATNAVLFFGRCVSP

Molecular target: ovalbumin (Gallus gallus) (UniProt P01012)

## concanavalin A (from UniProt P02866)
  Kd: 38 nM
